The source of these data is publication PMC6920932, “Deciphering the Structural Basis of High Thermostability of Dehalogenase from Psychrophilic Bacterium Marinobacter sp. ELB17” (Microorganisms, 2019).

The structures appear in SMILES notation.

The assay deals with DmxA. Put plainly: isothermal titration calorimetry, steady-state kinetics. The settings on record: 100 mM glycine buffer pH 8.6, 37 °C; substrate inhibition.

What is called Km is the substrate concentration at which the rate is half of its maximum. For the compound `BrCCBr`, the Km worked out at 800 µM.
